From publication PMC10832398 (Molecular cancer therapeutics, 2023)

Tested on: HS01 cells
Experiment: Combination matrix cell viability assay
Assay type: cell-based, human
Conditions: omipalisib/dasatinib matrix, Fig. 1A (HS01, HS02)

With Cc1nc(Nc2ncc(C(=O)Nc3c(C)cccc3Cl)s2)cc(N2CCN(CCO)CC2)n1 [Dasatinib, dasatinib] the synergistic doses was 156 to 625 nM.
